The target in this assay is 4-HPPD (Homo sapiens, UniProt P32754). The note with it: in vivo.

Chains of the proteins cited; added tags and fusions are not shown. Lines headed by an entry give the natural chain unless they say otherwise; changes in a name come on top.
UniProt P32754: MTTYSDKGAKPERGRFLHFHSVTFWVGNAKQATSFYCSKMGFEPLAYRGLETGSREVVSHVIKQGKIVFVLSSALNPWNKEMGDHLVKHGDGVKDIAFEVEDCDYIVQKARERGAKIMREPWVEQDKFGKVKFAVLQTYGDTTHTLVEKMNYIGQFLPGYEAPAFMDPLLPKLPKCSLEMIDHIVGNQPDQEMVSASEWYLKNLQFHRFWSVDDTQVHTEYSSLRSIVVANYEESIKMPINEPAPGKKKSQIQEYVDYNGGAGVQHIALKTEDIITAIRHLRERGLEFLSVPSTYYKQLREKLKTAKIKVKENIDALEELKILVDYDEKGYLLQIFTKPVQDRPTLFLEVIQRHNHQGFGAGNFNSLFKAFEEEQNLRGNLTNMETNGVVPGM

Structures are written as SMILES.

As for `O=C1CCCC(=O)C1C(=O)c1ccc(C(F)(F)F)cc1[N+](=O)[O-]` [NTBC, 2-(2-nitro-4-trifluoromethylbenzoyl)-cyclohexane-1,3-dione], the “all the biomarkers for 4-HPPD activity, average of their initial values” turned out to be 3%; the “excretion of succinylacetoacetate, normalization” value is reported as “normalized within two weeks”; the “plasma concentration of succinylacetone, normalization” value is “stabilized in the normal range after two months of treatment”. The “biomarkers for 4-HPPD activity, response upon initiation of NTBC treatment” value (po) was “promptly decreased”.

(Values after patent US20050288187A1, “Inhibitor development for 4-hydroxyphenylpyruvate dioxygenase, employing tyrosinemia 1 as a model for human diseases mediated by 2-oxoacid utilizing dioxygenases” (priority 2002, published 2005).)
